Assay results from publication PMC3735542, “Light Driven CO2 Fixation by Using Cyanobacterial Photosystem I and NADPH-Dependent Formate Dehydrogenase” (PLoS ONE, 2013).

Legend:
[1] = tested on: NC(=O)c1ccc[n+]([C@@H]2O[C@H](COP(=O)(O)OP(=O)(O)OC[C@H]3O[C@@H](n4cnc5c(N)ncnc54)[C@H](OP(=O)(O)O)[C@@H]3O)[C@@H](O)[C@H]2O)c1; test: purified protein; conditions: 500 mM formate, PBS, 0.05% Triton X-100; Table 1 prints WT as DYH, methods print Gln197
O=CO = test: purified protein; conditions: 2 mM NADP+, PBS, 0.05% Triton X-100

Substance	Km [1] [mM]	Km (O=CO) [mM]
Candida FDH (CbFDH) ([Candida] boidinii; D195Q/Q197N/Y196R)	0.18 ± 0.01	–
Pseudomonas FDH (PsFDH) (Pseudomonas sp. 101; D222Q/H224N)	–	63 ± 3
